Source: EP0044955B1, “Liquid herbicide mixtures” (BASF Aktiengesellschaft, priority 1980, dated 1982)

Test: Solubility of Substanz 1 and Substanz 2 in solvents at room temperature
Assay type: physicochemical
Excerpt: Es wurde gefunden, daß eine flüssige Herbizidmischung auf der Grundlage eines Pyridazonderivats und eines Biscarbamats die obengenannten Bedingungen erfüllt, wenn sie eine Lösung der Wirkstoffe in einem Säureamid der allgemeinen Formel [drawing 4] enthält, in der R^1 einen Alkylrest mit bis zu 8 C-Atomen oder einen gegebenenfalls durch Methyl oder Äthyl substituieren Phenylrest und R^2, R^3 je einen Alkylrest mit zusammen bis zu 8 C-Atomen bedeuten und das Säureamid insgesamt 8 bis 15 C-Atome enthält. Beispiele von Säureamiden sind in der Tabelle 4 zusammengefaßt. Bestimmt wurden die Löslichkeiten der Substanzen 1 (Chloridazon) und 2 (Biscarbamat) wie sie in Tabelle 1 aufgeführt sind, sowie die Wasserlöslichkeit der Lösungsmittel.

Nc1cnn(-c2ccccc2)c(=O)c1Cl [Substanz 1, 1-Phenyl-4-amino-5-chlor-pyridazon-(6), reference compound]
Löslichkeit in % (g Substanz in 100 g Lösung bei Raumtemperatur (RT 20°C)) (in Cyclohexanon): 7,0% | Löslichkeit in % (g Substanz in 100 g Lösung bei Raumtemperatur (RT 20°C)) (in Dimethylformamid): 22,1% | Löslichkeit in % (g Substanz in 100 g Lösung bei Raumtemperatur (RT 20°C)) (in Dimethylsulfoxid): 29,3% | Löslichkeit in % (g Substanz in 100 g Lösung bei Raumtemperatur (RT 20°C)) (in Isophoron): 6,0% | Löslichkeit in % (g Substanz in 100 g Lösung bei Raumtemperatur (RT 20°C)) (in N-Methylpyrrolidon): 22,5% | Löslichkeit in (%) (in Säureamid Nr. 1, Rt): 8,7% | Löslichkeit in (%) (in Säureamid Nr. 2, Rt): 13,5% | Löslichkeit in (%) (in Säureamid Nr. 3, Rt): 12,2% | Löslichkeit in (%) (in Säureamid Nr. 4, Rt): 7,8% | Löslichkeit in (%) (in Säureamid Nr. 5, Rt): 10,8% | Löslichkeit in (%) (in Säureamid Nr. 6, Rt): 8,1% | Löslichkeit in (%) (in Säureamid Nr. 7, Rt): 10,4% | Löslichkeit in (%) (in Säureamid Nr. 8, Rt): 9,6% | Löslichkeit in (%) (in Säureamid Nr. 9, Rt): 10,8% | Löslichkeit in (%) (in Säureamid Nr. 10, Rt): 10,8% | Löslichkeit in (%) (in Säureamid Nr. 11, Rt): 8,6% | Löslichkeit in (%) (in Säureamid Nr. 12, Rt): 8,3% | Löslichkeit in (%) (in Säureamid Nr. 13, Rt): 9,6%
